# Measured values: the SangsterLogP compilation
# Details: pH 7.0
compound,measurement,value
COc1cc2c(c(OC)c1OC)-c1ccc(OC)c(=O)cc1[C@@H](NC(C)=O)[C@H](O)C2,logD,0.33
